In US10449202B2, “Rationale-based design of a targeted therapy for cancer” (priority 2013, dated 2019):

How the values were obtained:
SRC3 = experiment: Western blot of SRC3 protein levels in prostate, breast and gastric cancer cells, 24 hours, two doses; conditions: prostate cancer cells (LNCaP and PC3), doses giving approximately 40% and 70% growth inhibition
DEK = experiment: Western blot of DEK protein levels in prostate, breast and gastric cancer cells, 24 hours, two doses; conditions: prostate cancer cells (LNCaP and PC3), doses giving approximately 40% and 70% growth inhibition

C[C@]12O[C@H](C[C@]1(O)CO)n1c3ccccc3c3c4c(c5c6ccccc6n2c5c31)CNC4=O [lestaurtinib]
SRC3 protein levels (SRC3): decreased in the higher dose treated cells
DEK protein levels (DEK): no obvious changes
